For 82 compounds, inhibition results are on record in PubChem BioAssay AID463115 (University of Pittsburgh Molecular Library Screening Center, 2010).

Amino acid sequences for entries named in this document (tags omitted). Residues count along the entry.
UniProt P09958, 108-714 limits assumed: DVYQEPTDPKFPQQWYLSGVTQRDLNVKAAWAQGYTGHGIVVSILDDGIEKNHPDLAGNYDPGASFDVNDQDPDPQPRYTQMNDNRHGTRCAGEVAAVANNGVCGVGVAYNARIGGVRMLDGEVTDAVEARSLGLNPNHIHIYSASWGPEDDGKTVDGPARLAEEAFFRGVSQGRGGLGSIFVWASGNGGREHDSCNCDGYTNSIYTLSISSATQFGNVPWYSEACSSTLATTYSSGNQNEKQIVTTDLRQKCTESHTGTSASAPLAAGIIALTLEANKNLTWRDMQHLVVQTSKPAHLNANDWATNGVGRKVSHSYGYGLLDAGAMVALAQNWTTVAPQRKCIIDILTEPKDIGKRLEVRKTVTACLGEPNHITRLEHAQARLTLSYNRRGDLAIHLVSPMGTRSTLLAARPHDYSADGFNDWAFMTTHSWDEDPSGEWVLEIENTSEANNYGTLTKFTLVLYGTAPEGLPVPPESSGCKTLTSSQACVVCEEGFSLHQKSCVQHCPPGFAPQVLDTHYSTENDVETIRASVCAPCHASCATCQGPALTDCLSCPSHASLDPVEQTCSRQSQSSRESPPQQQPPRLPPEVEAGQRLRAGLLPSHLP

SMILES strings stand for the structures. The list shows a part of the results, in another mix than the full data. Some salts and complexes are drawn in separate pieces, as the source files them; their charges need not balance. The source made the active and inactive calls. No stated cut-off is given here; in the data, active means inhibition above about 25%; inactive means the rest.

For the assay, the target named is Furin (Homo sapiens) (UniProt P09958). Put plainly: human furin inhibitors, primary screen, biochemical, fluorescence intensity (AID 463115). The conditions noted are these: purified furin, fluorogenic substrate cleavage, hits give high values; at 30 µM unless noted.
On to `CCc1ccc(OP(C)(=O)O)cc1`, for which the inhibition is inactive: -1.03% [at 20 µM]. In the case of `COc1ccccc1OP(C)(=O)Nc1ccc(C)cc1C` (configuration not stated) it was inactive: -15.1% [at 20 µM]; in that of `CP(=O)(Nc1ccccn1)Oc1ccccc1` (configuration not stated), inactive: -16.4% [at 20 µM]; in that of `O=[N+]([O-])c1cc([N+](=O)[O-])c(Nc2ccccn2)c([N+](=O)[O-])c1`, inactive: -19.9%. For `Cc1c(NP(C)(=O)Oc2ccc(C(C)C)cc2)c(=O)n(-c2ccccc2)n1C` (configuration not stated) the value was inactive: -16.9% [at 20 µM]; for `CN(C)CCOC(=O)C(O)(c1ccccc1)C1CCCC1` (configuration not stated), inactive: -7.23% [at 20 µM]; for `COc1ccc(OP(C)(=O)Nc2ccccn2)cc1` (configuration not stated), inactive: -12% [at 20 µM]. Regarding `COc1ccccc1OP(C)(=O)Nc1ccc(Br)cc1` (configuration not stated), the inhibition is inactive: -8.89%. Turning to `CP(=O)(OCCOc1ccccc1)OCCOc1ccccc1`, the inhibition is inactive: -28%. Regarding `CP(=O)(Nc1ccc(Cl)cc1Cl)Oc1ccccc1` (configuration not stated), the inhibition is inactive: -29.5%. Turning to `Cc1nc2ccc3ccccc3c2o1.O=[N+]([O-])c1cc([N+](=O)[O-])c(O)c([N+](=O)[O-])c1`, the inhibition was inactive: -13.8%.

With `COc1ccccc1OP(C)(=O)Nc1ccc(C)c(C)c1` (configuration not stated), the inhibition was inactive: -17%. With `Cc1cc(C)cc(OP(C)(=O)Nc2cccc(C(F)(F)F)c2)c1` (configuration not stated), the inhibition is inactive: -14.7%. `CP(=O)(OC12CC3CC(CC(C3)C1)C2)OC12CC3CC(CC(C3)C1)C2`: the inhibition is inactive: -13.8% [at 20 µM].

`CCOC(=O)c1ccc(NP(C)(=O)Oc2ccc(Cl)cc2)cc1` (configuration not stated): the inhibition was inactive: -15.3%. In the case of `CN(C)C(=O)c1c([N+](=O)[O-])cc([N+](=O)[O-])cc1[N+](=O)[O-]` it was inactive: -44.9%. For `CP(=O)(Nc1ccc(Cl)cc1)Oc1ccc(F)cc1` (configuration not stated) the value was inactive: -6.78% [at 20 µM]; for `CC(C)(C)c1ccc(OP(C)(=O)O)cc1`, inactive: -17.8% [at 20 µM]. For `COc1ccccc1OP(C)(=O)Nc1ccccc1Br` (configuration not stated) the value was inactive: -25.5%. On to `CCc1ccc(OP(C)(=O)Nc2cccnc2)cc1` (configuration not stated), for which the inhibition is inactive: -21.3%. For `CP(=O)(Oc1ccccc1)N1CCOC1=O` (configuration not stated), the inhibition was inactive: -14.6%.

For the compound `O=C(OCCCN1CCCC1)C(O)(c1ccccc1)C1CCCCC1` (configuration not stated), the inhibition was inactive: -15.1%. For `COc1ccccc1OP(C)(=O)Nc1c(C)n(C)n(-c2ccccc2)c1=O` (configuration not stated), the inhibition was inactive: -16.3%. On to `COc1ccc(OP(C)(=O)Nc2ccc(Br)cc2)cc1` (configuration not stated), for which the inhibition is inactive: 2.21%. For `CCN(CC)CC(O)COC(=O)C(O)(c1ccccc1)C1CCCCC1` (configuration not stated) the value was inactive: -20.9%; for `Cc1ccccc1NP(C)(=O)Nc1ccccc1C`, inactive: -21%; for `CP(=O)(Nc1ccc2c(c1)OCCO2)Oc1ccccc1` (configuration not stated), inactive: -22.3% [at 20 µM]. Take `CCOP(C)(=S)SCC(=O)NC(C)(CC)C(=O)O` (configuration not stated): the inhibition was inactive: -19.8%.

Regarding `CP(=O)(Nc1ccc(SC(F)(F)F)cc1)Oc1ccc(F)cc1` (configuration not stated), the inhibition was inactive: -10.6%. In the case of `O=[N+]([O-])c1cc([N+](=O)[O-])c(NCC2CCS(=O)(=O)C2)c([N+](=O)[O-])c1` (configuration not stated) it was inactive: -17.5%. In the case of `Cc1cc(-c2cccc3ccccc23)c(C)cn1.O=[N+]([O-])c1cc([N+](=O)[O-])c(O)c([N+](=O)[O-])c1` it was inactive: -1.1%; in that of `O=[N+]([O-])c1ccc(OP2(=O)COCCO2)cc1` (configuration not stated), inactive: -27.2%; in that of `COc1ccc(NP(C)(=O)Oc2ccccc2OC)cc1` (configuration not stated), inactive: -19.7%. With `CN(C)CCOC(=O)C(O)(c1ccccc1)C1CCCCC1` (configuration not stated), the inhibition was inactive: -5.48% [at 20 µM]. In the case of `COc1ccc(OP(C)(=O)Nc2cccc(Br)c2)cc1` (configuration not stated) it was inactive: -12.6% [at 20 µM]; in that of `CCCCCOc1ccc(NP(C)(=O)Oc2ccc(Cl)cc2Cl)cc1` (configuration not stated), inactive: 7.15%; in that of `CP(=O)(Nc1ccccc1)Oc1ccc(F)cc1` (configuration not stated), inactive: -22.3% [at 20 µM]. Regarding `CCN(CC)CCCOC(=O)C(O)(c1ccccc1)C1CCCCC1` (configuration not stated), the inhibition is inactive: -11.5% [at 20 µM]. In the case of `COc1ccc(OP(C)(=O)Nc2ccc(SC(F)(F)F)cc2)cc1` (configuration not stated) it was inactive: -9.74%; in that of `CCOC(=O)c1ccc(NP(C)(=O)Oc2ccc(F)cc2)cc1` (configuration not stated), inactive: 1.26%; in that of `COc1ccc2c(c1O)-c1c(O)c(OC)cc3c1[C@H](C2)[N+](C)(C)CC3.O=[N+]([O-])c1cc([N+](=O)[O-])c([O-])c([N+](=O)[O-])c1[O-]`, inactive: -17.8%.

For `O=C(OCCN1CCN(CCOCc2ccccc2)CC1)C(O)(c1ccccc1)c1ccccc1`, the inhibition was inactive: -14.1%.

As to `O=C(OC1CN2CCC1CC2)c1ccc([N+](=O)[O-])cc1` (configuration not stated), the inhibition was inactive: -16.2%.

Take `CC(C)c1ccc(OP(C)(=O)Nc2ccc(SC(F)(F)F)cc2)cc1` (configuration not stated): the inhibition was inactive: 6.09%. Turning to `CP(=O)(Nc1ccccc1F)Oc1ccccc1` (configuration not stated), the inhibition was inactive: -30%. For `CP(=O)(Nc1cccc(Br)c1)Oc1ccccc1` (configuration not stated) the value was inactive: -23.6%; for `Cc1cc(C)cc(OP(C)(=O)Nc2ccccn2)c1` (configuration not stated), inactive: -22.7% [at 20 µM]. Take `Cc1ccc(C)c(NP(C)(=O)Oc2ccccc2)c1` (configuration not stated): the inhibition was inactive: -12.2% [at 20 µM]. In the case of `Cc1cc(C)cc(OP(C)(=O)Nc2ccc(C)cc2C)c1` (configuration not stated) it was inactive: -24.5% [at 20 µM]; in that of `CCOC(=O)c1ccc(NP(C)(=O)Oc2cc(C)cc(C)c2)cc1` (configuration not stated), inactive: 1.24%. For `COc1ccccc1OP(C)(=O)Nc1cccc(Br)c1` (configuration not stated), the inhibition is inactive: -11.8%. With `CC1=NCCc2c1[nH]c1ccccc21.O=[N+]([O-])c1cc([N+](=O)[O-])c(O)c([N+](=O)[O-])c1`, the inhibition is inactive: 15%. For `O=C(O)c1cccc(Nc2c([N+](=O)[O-])cc([N+](=O)[O-])cc2[N+](=O)[O-])c1` the value was inactive: 3.12%; for `CP(=O)(Nc1ccc(SC(F)(F)F)cc1)Oc1ccccc1` (configuration not stated), inactive: -7.63%. `CCCOc1ccc(NP(C)(=O)Oc2ccc(Cl)cc2)cc1` (configuration not stated): the inhibition was inactive: -1.17%. Turning to `CN1CCCCC1COC(=O)C1(O)c2ccccc2CCc2ccccc21` (configuration not stated), the inhibition was inactive: -12.7%. For `COc1ccccc1OP(C)(=O)Nc1c(C)cccc1C` (configuration not stated) the value was inactive: -13.6% [at 20 µM]; for `CCOC(=O)C(CC)C1=NC(C)(C)Cc2ccccc21.O=[N+]([O-])c1cc([N+](=O)[O-])c(O)c([N+](=O)[O-])c1` (configuration not stated), inactive: -5.64%; for `O=[N+]([O-])c1cc([N+](=O)[O-])c(Nc2nnnn2CCO)c([N+](=O)[O-])c1`, inactive: -15.8%. For `Cc1nc2ccc3ccccc3c2s1.O=[N+]([O-])c1cc([N+](=O)[O-])c(O)c([N+](=O)[O-])c1` the value was inactive: -1.47%; for `O=[N+]([O-])c1cc([N+](=O)[O-])c(-n2nnc3ccccc32)c([N+](=O)[O-])c1`, inactive: -5.05%. For `CCOP(C)(=S)SCC(=O)NC(C)C(=O)O` (configuration not stated) the value was inactive: -7.73%; for `CCOC(=O)c1ccc(NP(C)(=O)Oc2ccc(OC)cc2)cc1` (configuration not stated), inactive: -10.9%; for `Cc1cc(C)cc(OP(C)(=O)Nc2ccc(SC(F)(F)F)cc2)c1` (configuration not stated), inactive: -9.22%. For `CCc1ccc(OP(C)(=O)N2CCN(c3ccc([N+](=O)[O-])cc3)CC2)cc1` (configuration not stated), the inhibition is inactive: 7.02%.

Regarding `CP(=O)(NC(=O)Nc1ccccc1)Oc1ccccc1` (configuration not stated), the inhibition was inactive: -17%.

With `CP(=O)(Oc1ccccc1)OC(c1ccccc1)C(F)(F)F` (configuration not stated), the inhibition is inactive: -23.3%. Turning to `CP(=O)(Nc1ccc(SC(F)(F)F)cc1)Oc1ccc(Cl)cc1` (configuration not stated), the inhibition is inactive: -11%. Consider `Cc1cccc(C)c1OP(C)(=O)Nc1ccc(SC(F)(F)F)cc1` (configuration not stated), for which the inhibition is inactive: -2.59%. `COc1ccccc1OP(C)(=O)Nc1ccccc1` (configuration not stated): the inhibition was inactive: -14.5%. For `CP(=O)(Nc1ccccc1Br)Oc1ccccc1` (configuration not stated) the value was inactive: -1.62%; for `CP(=S)(Nn1cnnc1)Oc1ccccc1` (configuration not stated), inactive: -12.6% [at 20 µM]; for `COc1ccc(OP(C)(=O)Nc2cccc(F)c2)cc1` (configuration not stated), inactive: -19.9% [at 20 µM]. As for `COc1ccccc1OP(C)(=O)Nc1cc(Cl)ccc1C` (configuration not stated), the inhibition was inactive: -19.6%. For `Cc1cc(C)cc(OP(C)(N)=O)c1` (configuration not stated), the inhibition is inactive: -25.3%. For `CCOC(=O)c1ccc(NP(C)(=O)Oc2ccccc2)cc1` (configuration not stated) the value was inactive: -19.2%. In the case of `Cc1ccc(NP(C)(=O)Oc2ccccc2)c(C)c1` (configuration not stated) it was inactive: -18.3%; in that of `COc1ccccc1OP(C)(=O)Nc1ccc(C)cc1` (configuration not stated), inactive: -10.1%; in that of `Cc1cccc(C)c1OP(C)(N)=O` (configuration not stated), inactive: -21.2%.

With `CC(C)(C)c1ccc(OP(C)(=O)Nc2ccc(SC(F)(F)F)cc2)cc1` (configuration not stated), the inhibition is inactive: -1.09%. For `O=[N+]([O-])c1ccc2c(c1)C=Nc1ccccc1O2`, the inhibition is inactive: -14%. Regarding `CCN(CC)CCCOC(=O)C(O)(c1ccccc1)c1ccccc1`, the inhibition was inactive: -23%.
